From patent publication US9371351B2, “Glycomimetics as Pseudomonas aeruginosa lectin inhibitors” (priority 2012, dated 2016)

Chains of the proteins cited; added tags and fusions are not shown.
UniProt Q9HYN5, entry or part of it: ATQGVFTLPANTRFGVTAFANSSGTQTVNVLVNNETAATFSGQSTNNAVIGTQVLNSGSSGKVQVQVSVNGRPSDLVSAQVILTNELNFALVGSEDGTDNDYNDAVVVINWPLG

Target: LecB (Pseudomonas aeruginosa, UniProt Q9HYN5)
Assay: Binding thermodynamics to LecB by isothermal calorimetry
Conditions: average of two measurements

In the case of `CO[C@H]1O[C@H](CO)[C@@H](O)[C@H](O)[C@@H]1O` [Me-α-D-Man, methyl α-D-mannopyranoside], the Ka is reported as 15150 M⁻¹.
